# Yeast mating assay 2: variants of the scFv Ab-95

Reference: Engelhart et al. 2022, doi:10.1038/s41597-022-01779-4. File: FLAb, binding data.

Target: peptide PDVDLGDISGINAS, taken from heptad repeat 2 (HR2) of SARS-CoV-2 spike.

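The parent was found by panning a naive human phage display library on the peptide. In library AAYL52, one, two or three CDR residues were substituted; doubles and triples were drawn at random. AlphaSeq pools MATa yeast showing the antibodies with MATalpha yeast showing the peptide. After mating in shaken culture at 30 °C for 16 h, diploids were selected and their barcode pairs sequenced. Scores were corrected for input abundance and mapped to Kd with protein pairs of known affinity run in the same pool. Mating was done three times.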

Parent: Ab-95, a human scFv built as VH, three GGGGS repeats, VL. Only the CDRs of the light chain vary.
VH: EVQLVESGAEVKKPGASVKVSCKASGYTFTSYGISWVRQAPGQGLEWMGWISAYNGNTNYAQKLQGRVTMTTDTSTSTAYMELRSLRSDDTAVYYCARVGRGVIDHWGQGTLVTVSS
VL: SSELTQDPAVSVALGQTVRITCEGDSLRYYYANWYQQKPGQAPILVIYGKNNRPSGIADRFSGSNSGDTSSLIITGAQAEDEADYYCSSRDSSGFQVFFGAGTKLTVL

The parent's light chain CDRs are EGDSLRYYYAN, GKNNRPS, SSRDSSGFQVF; each variant's own CDRs replace them letter for letter. Every variant below is changed at S26 of the VL (sequential numbering). Values are apparent Kd, the geometric mean of the replicates that gave a signal; lower means stronger binding. "no signal" marks a missing value. The strain was present, yet no cells mated with the target were sequenced in any replicate, which points to weak or no binding.

For ESDYLRYYYAN | GKNNRPS | SSRDSSGFQVF, the assay gave 1.2 µM (3 of 3 replicates). With EIDWLRYYYAN | GKNERPS | SSRDSSGFQVF the result was 31 µM (2 of 3 replicates). The variant EGDFLNYYYAN | GKNNRPS | SSRDSSGFQVF gave 2.6 µM (2 of 3 replicates). With EGDQLRYYYAN | GKNNRPS | SSRMRSGFQVF the result was 11 µM (2 of 3 replicates). The variant RGDLLRYYYAN | GKNNRPS | SSRTSSGFQVF showed no signal (0 of 3 replicates).

With EGDNLRYYYAN | GKNNRPS | SSRDSSGFQVF the result was 1.0 µM (3 of 3 replicates). The variant EGDTLRYYYAN | GKNNNPS | SSRDSSGFQVD showed 11 µM (3 of 3 replicates). With EGDRLRYYYYN | GKNNRPS | SSRDSSGFQVF the result was 5.2 µM (2 of 3 replicates). The variant EGDFLRYYYAN | GKNNRPS | SSRDSSGFVYF gave 740 nM (3 of 3 replicates). The variant AGDDLRYYYAN | GKKNRPS | SSRDSSGFQVF showed 38 µM (2 of 3 replicates).

With EGDGLRYYYAN | GKNNRPS | SSRDSSGFQHF the result was 2.0 µM (3 of 3 replicates). With EGDWLRYYYAN | KKNNRIS | SSRDSSGFQVF the result was 8.1 µM (3 of 3 replicates). The variant EEDMLRYYYAN | GKNNRPS | SGRDSSGFQVF gave 2.8 µM (3 of 3 replicates). The variant EGDMLRYVYAN | GKNNRPS | SSRDSSGFQVC gave 680 nM (3 of 3 replicates). For EGDILRYYYAN | GKNNRPS | FSRDSSGTQVF, the assay gave 930 nM (3 of 3 replicates).

With EGDQLRYKHAN | GKNNRPS | SSRDSSGFQVF the result was 330 nM (3 of 3 replicates). For EPDVLRYYYAN | GKNNRPS | YSRDSSGFQVF, the assay gave 6.3 µM (3 of 3 replicates). The variant EGDWLRYYYAT | GKNNRPS | GSRDSSGFQVF showed no signal (0 of 3 replicates). With EGDVLRYYYAN | GKNNRPD | SSRDPSGFQVF the result was 930 nM (3 of 3 replicates). With EGDKLKYYYAN | GKNNRPS | SSRDSSGFQDF the result was 24 µM (2 of 3 replicates).

The variant EGDHLRYYCAE | GKNNRPS | SSRDSSGFQVF showed 410 nM (3 of 3 replicates). For EMDPLRYYYAN | GKNNRPS | SSWDSSGFQVF, the assay gave 160 nM (3 of 3 replicates). The variant EGDFLRYYYAN | GKNNRPS | SLRDSSGFQNF showed no signal (0 of 3 replicates). With EGDFLQYYYAN | GKINRPS | SSRDSSGFQVF the result was 27 µM (2 of 3 replicates). The variant EGDRLRYYYAN | GKNCLPS | SSRDSSGFQVF gave 4.6 µM (1 of 3 replicates).

With EGDWLRYYYAN | GKNNRPS | SSRDSRNFQVF the result was 8.8 µM (2 of 3 replicates). For EGDHLRYYYAN | GWNNRPS | SSRDESGFQVF, the assay gave 1.0 µM (1 of 3 replicates). The variant EGDKLRYYYAN | GKNNRPS | SSRDSKGFQTF showed 1.6 µM (1 of 3 replicates). For EGDMLRYYYLN | GKNNRPF | SSRDSSGFQVF, the assay gave no signal (0 of 3 replicates). With EGDGLRYYVAN | GKNNRPS | KSRDSSGFQVF the result was 99 µM (1 of 3 replicates).

For EGDFLRGYYAN | GKNNRPS | SSRDSAGFQVF, the assay gave 170 nM (3 of 3 replicates). For EGDRLRYYYDN | GKNNRPS | SSRDSSGFYVF, the assay gave 330 µM (1 of 3 replicates). The variant EGDALRYYYAR | GKNNRFS | SSRDSSGFQVF gave 6.7 µM (1 of 3 replicates). The variant EGDVLRYYYAN | GKNNRPS | SSRDSSEFQVF showed 6.3 µM (3 of 3 replicates). For FGDHVRYYYAN | GKNNRPS | SSRDSSGFQVF, the assay gave 4.9 µM (1 of 3 replicates).

For EGDYLRYYYAN | GKNNQPS | SSRGSSGFQVF, the assay gave 13 µM (2 of 3 replicates). For EGDQLRYYYAL | GKNNRPS | SRRDSSGFQVF, the assay gave 3.9 µM (2 of 3 replicates). The variant EGDELRYYKAN | GKNNRPS | SSRDSSGFQWF showed no signal (0 of 3 replicates). With EQDKLRYYEAN | GKNNRPS | SSRDSSGFQVF the result was 500 nM (3 of 3 replicates). The variant EGDTLRYYYAN | GCNNRPS | SSWDSSGFQVF gave no signal (0 of 3 replicates).

With EGDALWYYYAN | GKNNRPS | SSRDSSGFQVH the result was 770 nM (3 of 3 replicates). The variant EGDALRYYYAN | GKLNRPS | SSIDSSGFQVF showed no signal (0 of 3 replicates). With EGDWARYYYAN | GKNNRPS | SSRDSSGFLVF the result was 18 µM (2 of 3 replicates). With EGDELRCYYAN | GKNNRPS | SSEDSSGFQVF the result was no signal (0 of 3 replicates). With EGDRLRYYYWN | GKNNRPS | SSRGSSGFQVF the result was 12 µM (2 of 3 replicates).

For ENDQLRYYYAN | GKNNRPS | SSRDSSGFQVW, the assay gave no signal (0 of 3 replicates). With EGDKLRYYYAN | GKNNRPS | SSRDSSGCQVQ the result was no signal (0 of 3 replicates). With EGDHLRYTYAN | GKNNRPS | SSRDISGFQVF the result was 11 nM (3 of 3 replicates). The variant EGDFLRYYYAN | GKNNRPS | YSRDSSGLQVF showed no signal (0 of 3 replicates).

Excerpt, the first 4 entries:

The variant ESDYLRYYYAN | GKNNRPS | SSRDSSGFQVF showed 1.2 µM (3 of 3 replicates).
The variant EIDWLRYYYAN | GKNERPS | SSRDSSGFQVF showed 31 µM (2 of 3 replicates).
The variant EGDFLNYYYAN | GKNNRPS | SSRDSSGFQVF showed 2.6 µM (2 of 3 replicates).
The variant EGDQLRYYYAN | GKNNRPS | SSRMRSGFQVF showed 11 µM (2 of 3 replicates).

As a blank, each scFv also met three strains without target: over library AAYL52, 28% of these pairings were detected, typically at 8.2 µM and seldom below 800 nM. In this assay the parent's reference entry averaged 200 nM; its copy inside this library read 180 nM.